## Reported logP (octanol/water) values for industrial, environmental and drug-like chemicals

Data: OPERA 2.9 data sets, kmansouri/OPERA on GitHub.

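These are experimental values that the OPERA curators gathered from public databases to train and test their QSAR models. A listed value is a point estimate from one report or more. How each value was measured is not recorded, so precision varies. Where a salt, mixture or single isomer is drawn, the source does not say that exactly this form was tested. Some upstream entries may be estimates or bounds without being marked so.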

The octanol-water partition coefficient is given as log10; larger values mean a more lipophilic compound.

* O=C([O-])c1ccccc1-c1c2cc(Br)c(=O)c(Br)c-2oc2c(Br)c([O-])c(Br)cc12.O=C([O-])c1ccccc1-c1c2cc(Br)c(=O)c(Br)c-2oc2c(Br)c([O-])c(Br)cc12.O=C([O-])c1ccccc1-c1c2cc(Br)c(=O)c(Br)c-2oc2c(Br)c([O-])c(Br)cc12.[Al+3].[Al+3] [Pigment Red 90:1]: log Kow 4.777
* CCOc1ccccc1C(=O)O [Benzoic acid, 2-ethoxy-]: log Kow 1.295
* O=C(O)c1cnccn1 [Pyrazinoic acid]: log Kow -0.18
* C1CCCCCC2OC2CCCC1 (configuration not stated) [13-Oxabicyclo[10.1.0]tridecane]: log Kow 4.7
* CC(=O)Oc1cccc(C(C)=O)c1 [m-Acetylphenyl acetate]: log Kow 1.4
* C=Cn1cc[n+](C)c1.[Cl-] [1-Ethenyl-3-methyl-1H-imidazol-3-ium chloride]: log Kow -3.51
* Clc1cc(Cl)c(-c2cc(Cl)c(Cl)cc2Cl)c(Cl)c1 [2,2',4,4',5,6'-Hexachlorobiphenyl]: log Kow 6.76
* N[C@@H](Cc1cc(Cl)c(O)c(Cl)c1)C(=O)O [3,5-Dichloro-L-tyrosine]: log Kow -0.28
* Cc1ccc(Nc2ccc(O)c3c2C(=O)c2ccccc2C3=O)cc1 [D&C Violet 2]: log Kow 4.26
* COc1ccc(C(=O)Nc2ccc3nn(C4CCCC4)nc3c2)cc1 [N-(2-Cyclopentylbenzotriazol-5-yl)-4-methoxybenzamide]: log Kow 4.03
* O=S(=O)(O)CCCN1CCOCC1 [4-Morpholinepropanesulfonic acid]: log Kow -2.94
* CC(C)n1c(/C=C/[C@@H](O)C[C@@H](O)CC(=O)O)c(-c2ccc(F)cc2)c2ccccc21 [Fluvastatin]: log Kow 4.5
* CC[C@H](C)[C@H](N)C(=O)N1CCC[C@H]1C(O)=N[C@H](C(=O)O)[C@@H](C)CC [N-[Hydroxy(1-isoleucylpyrrolidin-2-yl)methylidene]isoleucine]: log Kow -1.65
* O=C1c2ccc3c4ccc5c6c(ccc(c7ccc(c2c37)C(=O)N1c1ccc(N=Nc2ccccc2)cc1)c64)C(=O)N(c1ccc(N=Nc2ccccc2)cc1)C5=O [C.I. Pigment Red 178]: log Kow 1
* CN1CCC(O)CC1 [4-Piperidinol, 1-methyl-]: log Kow 0.756
* ClCC1(C(Cl)Cl)[C@H]2[C@@H](Cl)[C@H](Cl)[C@]1(C(Cl)Cl)[C@@H](Cl)[C@@H]2Cl (some centres not stated) [Nonachlorobornane (Parlar 50)]: log Kow 5.84
* C=C(C)OC [2-Methoxyprop-1-ene]: log Kow 1.7
* CC(C)OC(=O)C(C(=O)OC(C)C)=C1SCCS1=O (configuration not stated): log Kow 1.6
* Clc1ccc2c(c1)C(N1CCNCC1)=Nc1ccccc1O2 [Amoxapine]: log Kow 3.4
* O=c1ccn(O)c2ccccc12 [1-Hydroxyquinolin-4(1H)-one]: log Kow -0.47
* CC1=NS(=O)(=O)c2cccnc2N1C: log Kow -0.05
* COC(=O)/C=C(\C)N[C@@H](C(=O)[O-])C(C)C.[K+]: log Kow -2.23
* O=C1CC(Cl)C(=O)N1c1ccccc1 (configuration not stated) [3-Chloro-1-phenylpyrrolidine-2,5-dione]: log Kow -0.36
* Cc1ccc(C(C)(C)C)c(O)c1C(C)(C)C [Phenol, 2,6-bis(1,1-dimethylethyl)methyl-]: log Kow 5.1
* CSc1nc2nc(Cl)ccc2[nH]1 [5-Chloro-2-(methylthio)-3H-imidazo[4,5-b]pyridine]: log Kow 2.39
* Nc1ccc(/N=N/c2ccc(/N=N/c3c(S(=O)(=O)[O-])cc4cc(S(=O)(=O)[O-])c(/N=N/c5ccc(/N=N/c6ccc(N)cc6N)cc5)c(O)c4c3N)cc2)c(N)c1.[Na+].[Na+] [C.I. Direct Black 19, disodium salt]: log Kow -1.5
* CCCCCCCCCCCC[N+](C)(C)CC(=O)[O-]: log Kow 0.07
* Cc1nn(-c2ccccc2)c(N)c1/N=N/c1cc(Cl)c(S(=O)(=O)[O-])cc1Cl.[Li+]: log Kow -0.034
* CN=C(O)C(C)N=C(C)O (configuration not stated) [2-[(1-Hydroxyethylidene)amino]-N-methylpropanimidic acid]: log Kow -1.21
* CC1(C)S[C@@H]2[C@H](N=C(O)CCOc3ccccc3)C(=O)N2[C@H]1C(=O)O: log Kow 2.28
* CC(C)(N)CO [2-Amino-2-methylpropan-1-ol]: log Kow -0.63
* COc1ccc(CN)cc1 [Benzenemethanamine, 4-methoxy-]: log Kow 1.15
* CCN(CC)CCN1c2ccccc2Sc2ccccc21 [Diethazine]: log Kow 5.94
* S=C=Nc1ccc(Oc2ccccc2)cc1 [Benzene, 1-isothiocyanato-4-phenoxy-]: log Kow 4.75
* O=C([O-])C(O)C(O)C(O)C(O)CO.O=C([O-])C(O)C(O)C(O)C(O)CO.[Ca+2]: log Kow 0.021
* CCCC[P+](CCCC)(CCCC)CCCC.F.[F-] [Tetrabutylphosphonium hydrogen difluoride]: log Kow -1.2
* O=S(=O)(O)CCN1CCOCC1 [4-Morpholineethanesulfonic acid]: log Kow -2.2
* O=C(O)CN(CCO)CC(=O)O [N-(2-Hydroxyethyl)iminodiacetic acid]: log Kow -1.17
* CCN1CC(C(O)C(CC2CCCCC2)NC(=O)C(Cc2c[nH]cn2)NC(=O)C(CC(=O)N2CC(OCOCCOC)C(OCOCCOC)C2)Cc2ccccc2)OC1=O (configuration not stated): log Kow 1.87
* CCOC(=O)c1cnc2n(c1=O)CC(C)CC2 (configuration not stated): log Kow 0.71
* CC[C@H]1OC(=O)C[C@@H](O)[C@H](C)[C@@H](O[C@@H]2O[C@H](C)[C@@H](O)[C@H](N(C)C)[C@H]2O)[C@@H](CC=O)C[C@@H](C)C(=O)C=CC(C)=C[C@@H]1CO[C@@H]1O[C@H](C)[C@@H](O)[C@@H](OC)[C@H]1OC [Tylosin B]: log Kow 1
* N[C@@H](Cc1cc(I)c(Oc2ccc(O)c(I)c2)c(I)c1)C(=O)O [3,5,3'-Triiodothyronine]: log Kow 0.93
* Cl.Nc1ccc(CCNCC(O)c2ccccc2)cc1 (configuration not stated): log Kow -1.35
* CCOc1cc2c(cc1NC(=O)c1ccccc1)Oc1c(NC(C)=O)c3c(c(NC(C)=O)c1=N2)Oc1cc(NC(=O)c2ccccc2)c(OCC)cc1N=3: log Kow 0.57
* C=Cc1ccc(S(=O)(=O)[O-])cc1.[Na+] [Sodium 4-vinylbenzenesulfonate]: log Kow -3.44

Repeated from above, the 2 entries with the highest log Kow:

- Clc1cc(Cl)c(-c2cc(Cl)c(Cl)cc2Cl)c(Cl)c1 [2,2',4,4',5,6'-Hexachlorobiphenyl]: log Kow 6.76
- CCN(CC)CCN1c2ccccc2Sc2ccccc21 [Diethazine]: log Kow 5.94